Measured values published in patent US8076288B2 (priority 2004, dated 2011).

System: NIH/Swiss mice
Conditions: dose 16.7 nmol/Kg i.p.

## HGEGAFTSDLSKQLEEEAVRLFIEFLKN-NH2 [Compound 12, reference compound]
  Mouse Food Intake, % basal, 180 min: −53 % basal
